Target: ROCK2 protein (Homo sapiens, UniProt O75116)
Assay: Degradation inducing activity of ROCK2 protein in HUVEC cells, Western Blotting
Conditions: 24 hours
Experimental: In vitro degradation inducing activity of ROCK2 protein of compounds of Examples was evaluated by Western Blotting (WB).
By a test compound, 10 mM DMSO solution was prepared, which was used as a 10 μM test compound solution. Further, the solution was diluted 10-fold with DMSO to prepare a 1 mM solution, which was used as a 1 μM test compound solution.
HUVEC cells (ATCC: CRL-1730, Lot: 70041472) were cultured in F-12K medium supplemented with 10% FBS, 0.1 mg/mL heparin, 30 mg/mL Endothelial Cell Growth Supplement (ECGS, Corning), and 1% Penicillin/Streptomycin. The HUVEC cells seeded in a 24 well plate at 50,000 cells/well/i mL were cultured for 24 hours, and then 1 μL of DMSO or a test compound solution was added thereto and treatment was performed for 24 hours. Cells were harvested and lysed for 20 minutes on ice using lysis buffer (Cell Signaling Technology, Cat #9803) supplemented with protease inhibitor cocktail (Sigma, Cat #P8340; Roche, Cat #P11873580001), and phosphatase inhibitor cocktail (Sigma, Cat #P5726, P0044). The lysate was sonicated (15 seconds, amplitude 30%, 1 cycle) and then centrifuged at 12500 rpm for 15 minutes at 4 °C. The protein concentration was determined by BCA assay kit (Thermo Fisher Scientific, Cat #23225).
The western blotting was performed using Simple Western JESS (protein simple). A cell lysis sample (protein amount; about 1.06 μg) was loaded on a plate of Simple Western JESS, and the expression level of ROCK2 protein was detected using a 12-230 kDa Wes Separation Module (Protein simple, Cat #SM-W004), an Anti-Rabbit Detection Module for Wes (Protein simple, Cat #DM-001), and a Total Protein Detection Module for Wes (Protein simple, Cat #DM-TP01). As the primary antibody, a material obtained by diluting ROCK2 (D1B1) Rabbit mAb (Cell Signaling Technology, Cat #9029) at 1:10 was used, and as the secondary antibody, a material obtained by diluting HRP-labeled anti-rabbit IgG antibody (Cell Signaling Technology, Cat #7074S) at 1:100 was used. The expression level of the target protein was standardized using the total protein amount loaded as a reference. The standardized expression level data of the control (DMSO) was taken as 100%, and the degradation rate (%) was calculated from the average standardized expression level data of the test compound. All analysis steps, such as data detection and analysis, are fully automated.
With respect to the ROCK2 protein degradation rate of the test compound, the protein degradation rates (%) at the evaluation concentrations were set to A≥75%, 75%>B≥50%, 50%>C≥25%, and D<25%, and are shown in Table 7.

Protein sequences, listed by entry. Tags and fused reporters are not part of them.
UniProt O75116, whole entry: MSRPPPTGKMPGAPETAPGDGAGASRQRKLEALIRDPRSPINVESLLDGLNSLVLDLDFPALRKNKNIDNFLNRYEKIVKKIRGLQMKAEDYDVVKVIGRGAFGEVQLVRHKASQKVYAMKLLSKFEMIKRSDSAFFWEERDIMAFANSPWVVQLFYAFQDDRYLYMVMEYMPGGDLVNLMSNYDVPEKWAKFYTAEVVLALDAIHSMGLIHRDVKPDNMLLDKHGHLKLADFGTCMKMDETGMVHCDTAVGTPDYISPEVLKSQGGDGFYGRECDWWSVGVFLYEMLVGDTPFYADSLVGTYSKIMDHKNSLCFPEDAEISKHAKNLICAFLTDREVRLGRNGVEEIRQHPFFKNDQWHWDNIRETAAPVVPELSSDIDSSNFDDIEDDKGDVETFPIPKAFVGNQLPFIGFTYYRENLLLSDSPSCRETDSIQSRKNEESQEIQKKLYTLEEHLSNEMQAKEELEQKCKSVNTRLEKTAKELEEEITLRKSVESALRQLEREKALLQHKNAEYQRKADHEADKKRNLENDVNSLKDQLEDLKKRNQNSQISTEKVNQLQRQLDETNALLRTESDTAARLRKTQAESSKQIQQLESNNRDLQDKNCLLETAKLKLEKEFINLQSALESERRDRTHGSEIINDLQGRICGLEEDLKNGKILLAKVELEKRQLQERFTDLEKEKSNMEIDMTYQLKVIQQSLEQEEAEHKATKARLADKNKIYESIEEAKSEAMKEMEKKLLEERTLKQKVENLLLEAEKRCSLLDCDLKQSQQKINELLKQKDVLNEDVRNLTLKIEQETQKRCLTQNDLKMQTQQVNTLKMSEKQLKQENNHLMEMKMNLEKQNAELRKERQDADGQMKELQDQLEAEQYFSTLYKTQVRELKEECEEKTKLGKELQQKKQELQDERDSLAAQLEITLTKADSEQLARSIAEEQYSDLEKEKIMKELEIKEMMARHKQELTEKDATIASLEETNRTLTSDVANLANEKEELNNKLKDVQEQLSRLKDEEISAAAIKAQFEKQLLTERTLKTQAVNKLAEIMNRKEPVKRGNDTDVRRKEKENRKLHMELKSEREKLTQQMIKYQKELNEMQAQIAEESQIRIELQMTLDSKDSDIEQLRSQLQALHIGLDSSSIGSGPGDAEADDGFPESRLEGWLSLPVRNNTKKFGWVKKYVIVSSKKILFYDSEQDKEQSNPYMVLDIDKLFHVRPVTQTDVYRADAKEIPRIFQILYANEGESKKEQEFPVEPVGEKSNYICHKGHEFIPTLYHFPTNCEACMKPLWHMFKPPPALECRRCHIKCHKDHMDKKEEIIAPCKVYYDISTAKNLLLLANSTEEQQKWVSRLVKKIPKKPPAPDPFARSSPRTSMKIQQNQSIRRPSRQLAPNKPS

| Compound | ROCK2 protein degradation rate (at 1 μm) | ROCK2 protein degradation rate (at 10 μm) |
| --- | --- | --- |
| COC[C@H]1CN[C@H](C)CN1CC(=O)N1CC(C)(C)c2ncc(Cc3ccccc3OCCOCCOCCOCCOCCOCCOCCOCCN[C@H](Cc3cccc(F)c3)C(=O)Nc3ccc(-c4ccncc4)cc3)cc21 | D (D<25%) | A (A≥75%) |
| COC[C@H]1CN[C@H](C)CN1CC(=O)N1CC(C)(C)c2ncc(Cc3cccc(OCCOCCN[C@H](Cc4cccc(F)c4)C(=O)Nc4ccc(-c5ccncc5)cc4)c3)cc21 | C (50%>C≥25%) | A (A≥75%) |
| COC[C@H]1CN[C@H](C)CN1CC(=O)N1CC(C)(C)c2ncc(Cc3ccccc3OCCOCCOCCOCCOCCNC[C@@H](C(=O)Nc3ccc4cnccc4c3)c3ccccc3)cc21 | B (75%>B≥50%) | C (50%>C≥25%) |
| C[C@@H]1CN(CC(=O)N2CC(C)(C)c3ncc(Cc4ccc(F)cc4)cc32)[C@@H](CN(C)CCOCCOCCOCCOCCOCCOCCOCCN[C@H](C)c2ccc(C(=O)Nc3ccncc3)cc2)CN1 | – | B (75%>B≥50%) |
| COC[C@H]1CN[C@H](C)CN1CC(=O)N1CC(C)(C)c2ncc(Cc3ccccc3OCCOCCOCCOCCOCCOCCOCCOCCN[C@H](C)c3ccc(C(=O)Nc4ccncc4)cc3)cc21 | A/A (A≥75%) | A/A (A≥75%) |
| COC[C@H]1CN[C@H](C)CN1CC(=O)N1CC(C)(C)c2ncc(Cc3ccccc3OCCOCCOCCOCCOCCOCCOCCN[C@H](C)c3ccc(C(=O)Nc4ccncc4)cc3)cc21 | A/A (A≥75%) | A/A (A≥75%) |
| C[C@@H]1CN(CC(=O)N2CC(C)(C)c3ncc(Cc4ccc(F)cc4)cc32)[C@@H](CN(C)CCOCCOCCOCCOCCOCCOCCN[C@H](C)c2ccc(C(=O)Nc3ccncc3)cc2)CN1 | B (75%>B≥50%) | A (A≥75%) |
| COC[C@H]1CN[C@H](C)CN1CC(=O)N1CC(C)(C)c2nc(CN(C)CCOCCOCCOCCOCCOCCNC[C@@H](C(=O)Nc3ccc4cnccc4c3)c3ccccc3)c(Cc3ccc(F)cc3)cc21 | C (50%>C≥25%) | B (75%>B≥50%) |
| COC[C@H]1CN[C@H](C)CN1CC(=O)N1CC(C)(C)c2ncc(Cc3cccc(OCCOCCOCCN[C@H](Cc4cccc(F)c4)C(=O)Nc4ccc(-c5ccncc5)cc4)c3)cc21 | B (75%>B≥50%) | A (A≥75%) |
| C[C@@H]1CN(CC(=O)N2CC(C)(C)c3ncc(Cc4ccc(F)cc4)cc32)[C@@H](CN(C)CCOCCOCCOCCOCCN[C@H](C)c2ccc(C(=O)Nc3ccncc3)cc2)CN1 | A/A (A≥75%) | A/A (A≥75%) |
| COC[C@H]1CN[C@H](C)CN1CC(=O)N1CC(C)(C)c2ncc(Cc3ccccc3OCCOCCN[C@H](Cc3cccc(F)c3)C(=O)Nc3ccc(-c4ccncc4)cc3)cc21 | C (50%>C≥25%) | D (D<25%) |
| C[C@@H]1CN(CC(=O)N2CC(C)(C)c3ncc(Cc4ccc(F)cc4)cc32)[C@@H](CN(C)CCOCCOCCN[C@H](C)c2ccc(C(=O)Nc3ccncc3)cc2)CN1 | D (D<25%) | B (75%>B≥50%) |
| COC[C@H]1CN[C@H](C)CN1CC(=O)N1CC(C)(C)c2ncc(Cc3ccccc3OCCOCCOCCOCCOCCN[C@H](C)c3ccc(C(=O)Nc4ccncc4)cc3)cc21 | D (D<25%) | B (75%>B≥50%) |
| COC[C@H]1CN[C@H](C)CN1CC(=O)N1CC(C)(C)c2ncc(Cc3ccccc3OCCOCCNC[C@@H](C(=O)Nc3ccc4cnccc4c3)c3ccccc3)cc21 | D (D<25%) | A (A≥75%) |
| C[C@@H]1CN(CC(=O)N2CC(C)(C)c3ncc(Cc4ccc(F)cc4)cc32)[C@@H](CN(C)CCOCCOCCOCCOCCOCCOCCOCCN[C@H](Cc2cccc(F)c2)C(=O)Nc2ccc(-c3ccncc3)cc2)CN1 | C (50%>C≥25%) | A (A≥75%) |
| COC[C@H]1CN[C@H](C)CN1CC(=O)N1CC(C)(C)c2ncc(Cc3cccc(OCCOCCOCCNC[C@@H](C(=O)Nc4ccc5cnccc5c4)c4ccccc4)c3)cc21 | B (75%>B≥50%) | A (A≥75%) |
| COC[C@H]1CN[C@H](C)CN1CC(=O)N1CC(C)(C)c2nc(CN(C)CCOCCN[C@H](C)c3ccc(C(=O)Nc4ccncc4)cc3)c(Cc3ccc(F)cc3)cc21 | D (D<25%) | A (A≥75%) |
| C[C@@H]1CN(CC(=O)N2CC(C)(C)c3ncc(Cc4ccc(F)cc4)cc32)[C@@H](CN(C)CCOCCNC[C@@H](C(=O)Nc2ccc3cnccc3c2)c2ccccc2)CN1 | D (D<25%) | A (A≥75%) |
| C[C@@H]1CN(CC(=O)N2CC(C)(C)c3ncc(Cc4ccc(F)cc4)cc32)[C@@H](CN(C)CCOCCOCCOCCOCCN[C@H](Cc2cccc(F)c2)C(=O)Nc2ccc(-c3ccncc3)cc2)CN1 | B (75%>B≥50%) | A (A≥75%) |
| COC[C@H]1CN[C@H](C)CN1CC(=O)N1CC(C)(C)c2nc(CN(C)CCOCCN[C@H](Cc3cccc(F)c3)C(=O)Nc3ccc(-c4ccncc4)cc3)c(Cc3ccc(F)cc3)cc21 | B (75%>B≥50%) | A (A≥75%) |

Further lines, results first:

| ROCK2 protein degradation rate (at 1 μm) | ROCK2 protein degradation rate (at 10 μm) | Compound |
| --- | --- | --- |
| B (75%>B≥50%) | C (50%>C≥25%) | COC[C@H]1CN[C@H](C)CN1CC(=O)N1CC(C)(C)c2ncc(Cc3ccccc3OCCOCCOCCOCCOCCOCCOCCOCCNC[C@@H](C(=O)Nc3ccc4cnccc4c3)c3ccccc3)cc21 |
| B (75%>B≥50%) | A (A≥75%) | COC[C@H]1CN[C@H](C)CN1CC(=O)N1CC(C)(C)c2nc(CN(C)CCOCCOCCOCCOCCOCCOCCOCCNC[C@@H](C(=O)Nc3ccc4cnccc4c3)c3ccccc3)c(Cc3ccc(F)cc3)cc21 |
| D (D<25%) | A (A≥75%) | (R)-18-(3-Fluorobenzyl)-1-(6-(4-fluorobenzyl)-1-(2-((2R,5R)-2-(methoxymethyl)-5-methylpiperazin-1-yl)acetyl)-3,3-dimethyl-2,3-dihydro-1H-pyrrolo[3,2-b]pyridin-5-yl)-2-methyl-N-(4-(pyridin-4-yl)phenyl)-5,8,11,14-tetraoxa-2,17-diazanonadecan-19-amide |
| D/D (D<25%) | D/D (D<25%) | COC[C@H]1CN[C@H](C)CN1CC(=O)N1CC(C)(C)c2nc(CN(C)CCOCCOCCOCCOCCOCCOCCN[C@H](C)c3ccc(C(=O)Nc4ccncc4)cc3)c(Cc3ccc(F)cc3)cc21 |
| C (50%>C≥25%) | A (A≥75%) | C[C@@H]1CN(CC(=O)N2CC(C)(C)c3ncc(Cc4ccc(F)cc4)cc32)[C@@H](CN(C)CCOCCN[C@H](C)c2ccc(C(=O)Nc3ccncc3)cc2)CN1 |
| D (D<25%) | B (75%>B≥50%) | COC[C@H]1CN[C@H](C)CN1CC(=O)N1CC(C)(C)c2ncc(Cc3ccccc3OCCOCCOCCOCCOCCOCCN[C@H](Cc3cccc(F)c3)C(=O)Nc3ccc(-c4ccncc4)cc3)cc21 |
| C (50%>C≥25%) | A (A≥75%) | COC[C@H]1CN[C@H](C)CN1CC(=O)N1CC(C)(C)c2ncc(Cc3cccc(OCCOCCOCCOCCOCCOCCOCCNC[C@@H](C(=O)Nc4ccc5cnccc5c4)c4ccccc4)c3)cc21 |
| A/A (A≥75%) | A/A (A≥75%) | COC[C@H]1CN[C@H](C)CN1CC(=O)N1CC(C)(C)c2ncc(Cc3ccccc3OCCOCCOCCOCCN[C@H](C)c3ccc(C(=O)Nc4ccncc4)cc3)cc21 |
| B (75%>B≥50%) | A (A≥75%) | COC[C@H]1CN[C@H](C)CN1CC(=O)N1CC(C)(C)c2nc(CN(C)CCOCCOCCOCCOCCOCCOCCNC[C@@H](C(=O)Nc3ccc4cnccc4c3)c3ccccc3)c(Cc3ccc(F)cc3)cc21 |
| B (75%>B≥50%) | A (A≥75%) | COC[C@H]1CN[C@H](C)CN1CC(=O)N1CC(C)(C)c2ncc(Cc3cccc(OCCOCCOCCOCCOCCOCCNC[C@@H](C(=O)Nc4ccc5cnccc5c4)c4ccccc4)c3)cc21 |
| C (50%>C≥25%) | B (75%>B≥50%) | C[C@@H]1CN(CC(=O)N2CC(C)(C)c3ncc(Cc4ccc(F)cc4)cc32)[C@@H](CN(C)CCOCCOCCOCCOCCOCCOCCOCCNC[C@@H](C(=O)Nc2ccc3cnccc3c2)c2ccccc2)CN1 |
